scFv variants of Ab-14 (heavy chain) against a SARS-CoV-2 spike peptide

Reference: Li et al. 2023, doi:10.1038/s41467-023-39022-2. File: FLAb, binding data.

Binding partner: SARS-CoV-2 spike HR2 peptide, sequence PDVDLGDISGINAS.

Each scFv is VH, a 15-residue (Gly4Ser)3 linker, VL, as in the parent Ab-14, and differs from it in the CDRs of the heavy chain only.
VH: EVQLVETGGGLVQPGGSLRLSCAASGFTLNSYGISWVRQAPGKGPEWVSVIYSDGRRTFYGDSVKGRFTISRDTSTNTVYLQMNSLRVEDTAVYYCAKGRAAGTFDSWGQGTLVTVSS
VL: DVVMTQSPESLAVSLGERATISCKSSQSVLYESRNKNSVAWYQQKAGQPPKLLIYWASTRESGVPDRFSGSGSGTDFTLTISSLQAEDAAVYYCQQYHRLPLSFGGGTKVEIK

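These sequences belong to a second round, designed from the earlier measurements on random variants of the parent. Several design methods are mixed in this list. Affinity was read by AlphaSeq, a pooled yeast mating assay with surface-displayed partners. Pairs that bind mate more often; barcode pairs of the diploids are counted by sequencing. Each replicate has its own calibration line, from reference interactions of the BCL2 family. Mating was done six times.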

Sequences are complete VH domains.
Scale: log10 of Kd in nM, estimated from mating counts; low values are strong binders.
The mean shown is taken over the replicates in which the pair was detected.
"nd" marks a missing value. The strain was present, yet no cells mated with the target were sequenced in any replicate, which points to weak or no binding.
Values of this round are not directly comparable with the first-round values of the same sequences.
Three control strains display no target. For all heavy chain designs, 1% of the pairings with them gave a signal, with a median of 2.08 and one signal in twenty below 0.84, so weak values seen in few replicates may be background. Also given: how often the same scFv was detected with the empty control strains.
The authors averaged sequences with at least three values out of six and counted those with two or fewer as poor binders.

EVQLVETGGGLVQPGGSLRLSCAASGDALNEYGISWVRQAPGKGPEWVSVIYADGFRAAYTDKVKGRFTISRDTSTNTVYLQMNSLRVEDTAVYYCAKGVTVGNFSSWGQGTLVTVSS: 3.02 (1 of 6 replicates; controls 0 of 18).
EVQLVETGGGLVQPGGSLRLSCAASKFTLNSYGISWVRQAPGKGPEWVSVIYSDGKRTFYSDSVKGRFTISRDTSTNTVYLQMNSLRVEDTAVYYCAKGEAAGTFDSWGQGTLVTVSS: 0.87 (6 of 6 replicates; controls 0 of 18).
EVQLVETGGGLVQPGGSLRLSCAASGFDLDEYGISWVRQAPGKGPEWVSVIYADGRRTFYADSVKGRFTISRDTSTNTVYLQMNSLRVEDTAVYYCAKGTLAGTFDLWGQGTLVTVSS: -0.40 (6 of 6 replicates; controls 0 of 18).
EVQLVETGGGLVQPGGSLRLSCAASEDSLNEYGISWVRQAPGKGPEWVSVIYADGMRAAYADPVKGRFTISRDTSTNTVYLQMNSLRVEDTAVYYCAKGENDGLFDQWGQGTLVTVSS: 4.33 (1 of 6 replicates; controls 1 of 18).
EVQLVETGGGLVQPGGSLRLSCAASGFTLNEYGISWVRQAPGKGPEWVSVIYSDGRRTFYGDSVKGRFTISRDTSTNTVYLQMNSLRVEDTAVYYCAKGRMAGTFDKWGQGTLVTVSS: 1.07 (6 of 6 replicates; controls 0 of 18).
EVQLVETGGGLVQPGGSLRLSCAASGFTLNDYGISWVRQAPGKGPEWVSVIYSDGRRTFYGDAVKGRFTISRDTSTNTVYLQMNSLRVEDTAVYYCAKGKTAGTFDAWGQGTLVTVSS: 0.40 (6 of 6 replicates; controls 0 of 18).
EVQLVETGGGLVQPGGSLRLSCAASGFDLNSYGISWVRQAPGKGPEWVSVIYSDGRRSFYGDSVKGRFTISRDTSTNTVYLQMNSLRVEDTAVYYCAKGRIAGTFDSWGQGTLVTVSS: 0.27 (6 of 6 replicates; controls 0 of 18).
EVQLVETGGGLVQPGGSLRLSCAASGFTLNSYGISWVRQAPGKGPEWVSVIYSDGRRTFYGDSVKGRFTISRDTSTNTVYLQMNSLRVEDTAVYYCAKGRAAGSFTKWGQGTLVTVSS: nd (0 of 6 replicates; controls 0 of 18).
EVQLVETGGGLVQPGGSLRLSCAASGFDLNSYGASWVRQAPGKGPEWVSVIYSDGRRTPYGDSVKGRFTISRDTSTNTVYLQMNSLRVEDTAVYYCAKGRAAGWFNSWGQGTLVTVSS: nd (0 of 6 replicates; controls 0 of 18).
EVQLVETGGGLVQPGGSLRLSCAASGFDLNSYGISWVRQAPGKGPEWVSVIYADGRRTFYGDSVKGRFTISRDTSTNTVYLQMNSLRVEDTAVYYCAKGKAAGTFDTWGQGTLVTVSS: 0.26 (6 of 6 replicates; controls 0 of 18).
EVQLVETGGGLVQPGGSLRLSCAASGFDLNEYGISWVRQAPGKGPEWVSVIYADGIRTAYVSKVKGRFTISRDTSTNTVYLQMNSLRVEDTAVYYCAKGRDIINVLFWGQGTLVTVSS: nd (0 of 6 replicates; controls 0 of 18).
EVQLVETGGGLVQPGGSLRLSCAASGFDLNSYGISWVRQAPGKGPEWVSVIYSDGRRTFYVDQVKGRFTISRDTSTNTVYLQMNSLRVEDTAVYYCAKGRNAGTFDSWGQGTLVTVSS: 1.03 (6 of 6 replicates; controls 0 of 18).

The remaining entries, values ahead:

Result 0.68 (6 of 6 replicates; controls 2 of 18), variant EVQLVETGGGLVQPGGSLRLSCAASGFTLNSYGISWVRQAPGKGPEWVSVIYSDGRRTFYSDSVKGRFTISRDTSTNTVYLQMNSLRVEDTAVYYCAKGHAAGTFDLWGQGTLVTVSS.
Result -0.50 (6 of 6 replicates; controls 1 of 18), variant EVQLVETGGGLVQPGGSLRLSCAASGFNLNEYGISWVRQAPGKGPEWVSVIYADGRRTAYSDSVKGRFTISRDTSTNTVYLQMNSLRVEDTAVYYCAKGEAAGTFDSWGQGTLVTVSS.
Result -0.25 (6 of 6 replicates; controls 0 of 18), variant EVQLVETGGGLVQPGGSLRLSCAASGFTLNEYGISWVRQAPGKGPEWVSVIYSDGKRTFYGDSVKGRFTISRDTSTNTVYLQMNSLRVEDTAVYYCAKGRNAGTFDSWGQGTLVTVSS.
Result 2.01 (1 of 6 replicates; controls 0 of 18), variant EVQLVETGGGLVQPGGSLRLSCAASGFTLNSYGISWVRQAPGKGPEWVSVIYSDGKRTFYIDSVKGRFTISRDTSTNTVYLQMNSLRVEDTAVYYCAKGRIAGTFDSWGQGTLVTVSS.
Result -0.12 (6 of 6 replicates; controls 3 of 18), variant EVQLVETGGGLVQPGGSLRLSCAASGFDLNEYGISWVRQAPGKGPEWVSVIYADGKRTVYADSVKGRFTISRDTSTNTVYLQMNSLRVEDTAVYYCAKGNVAGTFDIWGQGTLVTVSS.
Result 2.41 (3 of 6 replicates; controls 1 of 18), variant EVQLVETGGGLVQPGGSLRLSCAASGFELNDYGISWVRQAPGKGPEWVSVIYSDGRRTFYHDWVKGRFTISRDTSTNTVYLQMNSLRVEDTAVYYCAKGRTAGTFDSWGQGTLVTVSS.
Result -0.03 (6 of 6 replicates; controls 0 of 18), variant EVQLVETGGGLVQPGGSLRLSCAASGFDLNSYGISWVRQAPGKGPEWVSVIYSDGRRTFYGDSVKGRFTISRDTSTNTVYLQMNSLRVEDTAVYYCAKGKEAGTFDNWGQGTLVTVSS.
Result 1.77 (5 of 6 replicates; controls 0 of 18), variant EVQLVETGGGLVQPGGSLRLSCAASDFTLNSYGISWVRQAPGKGPEWVSVIYSDGRRTFYSDSVKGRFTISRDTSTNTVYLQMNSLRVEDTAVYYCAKGDAAGTFDSWGQGTLVTVSS.
Result nd (0 of 6 replicates; controls 1 of 18), variant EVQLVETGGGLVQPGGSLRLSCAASGFDLNNYGVSWVRQAPGKGPEWVSHIYSDGRRTFYGDEVKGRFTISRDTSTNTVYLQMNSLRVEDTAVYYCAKGRAAGTFDSWGQGTLVTVSS.
Result 1.20 (6 of 6 replicates; controls 0 of 18), variant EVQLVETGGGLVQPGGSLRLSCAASGFTLNEYGISWVRQAPGKGPEWVSVIYSDGRRTFYMDSVKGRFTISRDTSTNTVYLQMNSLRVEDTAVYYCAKGRQAGTFDSWGQGTLVTVSS.
Result 2.91 (1 of 6 replicates; controls 1 of 18), variant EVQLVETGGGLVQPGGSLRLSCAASGFDLQEYGISWVRQAPGKGPEWVSVIYADGVRMAYTESVKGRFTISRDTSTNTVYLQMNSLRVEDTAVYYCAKGNSGGRDMLWGQGTLVTVSS.
Result 0.97 (2 of 6 replicates; controls 1 of 18), variant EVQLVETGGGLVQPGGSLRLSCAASGFSLNSYGISWVRQAPGKGPEWVSVIYSDGRRTFYVDSVKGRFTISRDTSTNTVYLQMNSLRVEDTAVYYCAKGKLAGTFDTWGQGTLVTVSS.

Top 2 of the variants detected in all replicates, tightest first:

VH	mean, log10 nM	detected	signal with controls
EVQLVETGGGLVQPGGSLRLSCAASGFNLNEYGISWVRQAPGKGPEWVSVIYADGRRTAYSDSVKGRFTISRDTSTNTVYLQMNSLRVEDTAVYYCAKGEAAGTFDSWGQGTLVTVSS	-0.50	6 of 6	1 of 18
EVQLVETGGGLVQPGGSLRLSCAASGFDLDEYGISWVRQAPGKGPEWVSVIYADGRRTFYADSVKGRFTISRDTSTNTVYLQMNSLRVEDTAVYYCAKGTLAGTFDLWGQGTLVTVSS	-0.40	6 of 6	0 of 18